Results reported in EP4834878A1, “AMIDE DERIVATIVE, PREPARATION METHOD THEREFOR AND USE THEREOF” (dated 2026).

Amino acid sequences for entries named in this document (tags omitted).
UniProt P21397, whole entry: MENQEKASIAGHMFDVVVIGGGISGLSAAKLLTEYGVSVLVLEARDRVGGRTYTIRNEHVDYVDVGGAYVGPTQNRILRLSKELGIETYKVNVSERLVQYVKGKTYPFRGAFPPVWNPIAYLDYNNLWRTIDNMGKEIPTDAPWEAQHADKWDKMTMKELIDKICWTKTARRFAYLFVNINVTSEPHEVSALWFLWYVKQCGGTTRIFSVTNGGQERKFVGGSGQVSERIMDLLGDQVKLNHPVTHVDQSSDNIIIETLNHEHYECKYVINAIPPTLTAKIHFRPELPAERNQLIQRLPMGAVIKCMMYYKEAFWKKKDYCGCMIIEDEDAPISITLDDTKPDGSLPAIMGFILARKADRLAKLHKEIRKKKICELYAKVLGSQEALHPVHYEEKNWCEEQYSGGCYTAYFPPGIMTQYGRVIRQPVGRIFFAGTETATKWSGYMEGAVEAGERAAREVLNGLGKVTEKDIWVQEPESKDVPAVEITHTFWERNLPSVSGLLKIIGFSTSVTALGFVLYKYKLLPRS
UniProt P27338, whole entry: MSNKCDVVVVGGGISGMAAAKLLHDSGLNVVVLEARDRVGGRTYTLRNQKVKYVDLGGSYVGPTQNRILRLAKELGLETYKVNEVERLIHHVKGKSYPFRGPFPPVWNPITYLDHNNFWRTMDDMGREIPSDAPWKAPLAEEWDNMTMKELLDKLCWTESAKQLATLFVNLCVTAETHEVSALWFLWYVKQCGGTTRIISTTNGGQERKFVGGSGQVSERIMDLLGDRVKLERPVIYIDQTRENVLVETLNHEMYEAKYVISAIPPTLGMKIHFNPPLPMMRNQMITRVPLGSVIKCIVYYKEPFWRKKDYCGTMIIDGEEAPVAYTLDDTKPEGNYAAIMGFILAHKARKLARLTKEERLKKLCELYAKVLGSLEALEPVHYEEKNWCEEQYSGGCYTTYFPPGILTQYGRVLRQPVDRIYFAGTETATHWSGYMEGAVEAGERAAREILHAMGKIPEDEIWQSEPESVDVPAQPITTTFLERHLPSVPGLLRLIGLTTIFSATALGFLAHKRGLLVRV

What was measured:
MAO-A = MAO-A (Homo sapiens, UniProt P21397); assay: Determination of inhibitory activity of compounds against MAO-A (MAO-Glo Assay, luminescence); conditions: read-out: MAO-A IC50; human monoamine oxidase A, 30 min pre-incubation; compounds in free form
MAO-B = MAO-B (Homo sapiens, UniProt P27338); assay: Determination of inhibitory activity of compounds against MAO-B (Amplex Red Monoamine Oxidase Assay Kit, fluorescence); conditions: read-out: MAO-B IC50, benzylamine substrate, 30 min pre-incubation, compounds in free form
DIO mice = assay: Test of weight-lowering efficacy of compounds in DIO mice; conditions: 10 mg/kg intragastric once daily; for Mouse weight: group average
[1] = day 0 vs day 0, methanesulfonate salt form
[2] = day 1 vs day 0, methanesulfonate salt form
[3] = day 2 vs day 0, methanesulfonate salt form
[4] = day 3 vs day 0, methanesulfonate salt form
[5] = day 4 vs day 0, methanesulfonate salt form
[6] = day 5 vs day 0, methanesulfonate salt form
[7] = day 6 vs day 0, methanesulfonate salt form
[8] = day 7 vs day 0, methanesulfonate salt form
[9] = day 8 vs day 0, methanesulfonate salt form
[10] = day 9 vs day 0, methanesulfonate salt form
[11] = day 10 vs day 0, methanesulfonate salt form
[12] = day 11 vs day 0, methanesulfonate salt form
[13] = day 12 vs day 0, methanesulfonate salt form
[14] = day 13 vs day 0, methanesulfonate salt form
[15] = day 14 vs day 0, methanesulfonate salt form
[16] = day 15 vs day 0, methanesulfonate salt form
[17] = day 16 vs day 0, methanesulfonate salt form
[18] = day 17 vs day 0, methanesulfonate salt form
[19] = day 18 vs day 0, methanesulfonate salt form
[20] = day 19 vs day 0, methanesulfonate salt form
[21] = day 20 vs day 0, methanesulfonate salt form
[22] = day 21 vs day 0, methanesulfonate salt form
[23] = day 22 vs day 0, methanesulfonate salt form
[24] = day 23 vs day 0, methanesulfonate salt form
[25] = day 24 vs day 0, methanesulfonate salt form

NC(=O)[C@@H]1CCN1Cc1ccc(-c2ccc(C(F)(F)F)cc2)cc1
IC50 (MAO-A): > 10000 nM
IC50 (MAO-B): < 50 nM

C[C@H](NCc1ccc(-c2ccc(Cl)c(Cl)c2)cc1)C(N)=O
IC50 (MAO-B): 50 to 100 nM

C[C@H](NCc1ccc(-c2ccc(C(F)(F)F)cc2)cc1Cl)C(N)=O
IC50 (MAO-A): 2000 to 10000 nM
IC50 (MAO-B): 50 to 100 nM

C[C@H](NCc1ccc(-c2ccc(C(F)(F)F)s2)cc1)C(N)=O
IC50 (MAO-B): 50 to 100 nM

NC(=O)C1(NCc2ccc(-c3ccc(C(F)(F)F)cc3)cc2)COC1
IC50 (MAO-B): 50 to 100 nM

C[C@@H](C(N)=O)N1Cc2ccc(-c3ccc(C(F)(F)F)cc3)cc2C1
IC50 (MAO-A): > 10000 nM
IC50 (MAO-B): < 50 nM

C[C@H](NCc1ccc(-c2ccc(C(F)(F)F)cc2)cc1)C(N)=O
Mouse weight (DIO mice; day 0, methanesulfonate salt form): 49.7 g
Mouse weight change (DIO mice; [1]): 0 g
Mouse weight change rate (%) (DIO mice; [1]): 0%
Mouse weight (DIO mice; day 1, methanesulfonate salt form): 50.1 g
Mouse weight change (DIO mice; [2]): 0.4 g
Mouse weight change rate (%) (DIO mice; [2]): 0.8%
Mouse weight (DIO mice; day 2, methanesulfonate salt form): 49.4 g
Mouse weight change (DIO mice; [3]): -0.3 g
Mouse weight change rate (%) (DIO mice; [3]): -0.6%
Mouse weight (DIO mice; day 3, methanesulfonate salt form): 49.5 g
Mouse weight change (DIO mice; [4]): -0.2 g
Mouse weight change rate (%) (DIO mice; [4]): -0.4%
Mouse weight (DIO mice; day 4, methanesulfonate salt form): 49.1 g
Mouse weight change (DIO mice; [5]): -0.6 g
Mouse weight change rate (%) (DIO mice; [5]): -1.2%
Mouse weight (DIO mice; day 5, methanesulfonate salt form): 49.2 g
Mouse weight change (DIO mice; [6]): -0.5 g
Mouse weight change rate (%) (DIO mice; [6]): -1%
Mouse weight (DIO mice; day 6, methanesulfonate salt form): 49.1 g
Mouse weight change (DIO mice; [7]): -0.6 g
Mouse weight change rate (%) (DIO mice; [7]): -1.2%
Mouse weight (DIO mice; day 7, methanesulfonate salt form): 48.7 g
Mouse weight change (DIO mice; [8]): -1.0 g
Mouse weight change rate (%) (DIO mice; [8]): -2%
Mouse weight (DIO mice; day 8, methanesulfonate salt form): 48.8 g
Mouse weight change (DIO mice; [9]): -0.9 g
Mouse weight change rate (%) (DIO mice; [9]): -1.8%
Mouse weight (DIO mice; day 9, methanesulfonate salt form): 48.7 g
Mouse weight change (DIO mice; [10]): -1.0 g
Mouse weight change rate (%) (DIO mice; [10]): -2%
Mouse weight (DIO mice; day 10, methanesulfonate salt form): 48.8 g
Mouse weight change (DIO mice; [11]): -0.9 g
Mouse weight change rate (%) (DIO mice; [11]): -1.8%
Mouse weight (DIO mice; day 11, methanesulfonate salt form): 48.9 g
Mouse weight change (DIO mice; [12]): -0.8 g
Mouse weight change rate (%) (DIO mice; [12]): -1.6%
Mouse weight (DIO mice; day 12, methanesulfonate salt form): 48.7 g
Mouse weight change (DIO mice; [13]): -1.0 g
Mouse weight change rate (%) (DIO mice; [13]): -2%
Mouse weight (DIO mice; day 13, methanesulfonate salt form): 48.4 g
Mouse weight change (DIO mice; [14]): -1.3 g
Mouse weight change rate (%) (DIO mice; [14]): -2.6%
Mouse weight (DIO mice; day 14, methanesulfonate salt form): 48.1 g
Mouse weight change (DIO mice; [15]): -1.6 g
Mouse weight change rate (%) (DIO mice; [15]): -3.2%
Mouse weight (DIO mice; day 15, methanesulfonate salt form): 48.4 g
Mouse weight change (DIO mice; [16]): -1.3 g
Mouse weight change rate (%) (DIO mice; [16]): -2.6%
Mouse weight (DIO mice; day 16, methanesulfonate salt form): 48.1 g
Mouse weight change (DIO mice; [17]): -1.6 g
Mouse weight change rate (%) (DIO mice; [17]): -3.2%
Mouse weight (DIO mice; day 17, methanesulfonate salt form): 48.3 g
Mouse weight change (DIO mice; [18]): -1.4 g
Mouse weight change rate (%) (DIO mice; [18]): -2.8%
Mouse weight (DIO mice; day 18, methanesulfonate salt form): 48.3 g
Mouse weight change (DIO mice; [19]): -1.4 g
Mouse weight change rate (%) (DIO mice; [19]): -2.8%
Mouse weight (DIO mice; day 19, methanesulfonate salt form): 48.5 g
Mouse weight change (DIO mice; [20]): -1.2 g
Mouse weight change rate (%) (DIO mice; [20]): -2.4%
Mouse weight (DIO mice; day 20, methanesulfonate salt form): 48.4 g
Mouse weight change (DIO mice; [21]): -1.3 g
Mouse weight change rate (%) (DIO mice; [21]): -2.6%
Mouse weight (DIO mice; day 21, methanesulfonate salt form): 48.0 g
Mouse weight change (DIO mice; [22]): -1.7 g
Mouse weight change rate (%) (DIO mice; [22]): -3.4%
Mouse weight (DIO mice; day 22, methanesulfonate salt form): 48.0 g
Mouse weight change (DIO mice; [23]): -1.7 g
Mouse weight change rate (%) (DIO mice; [23]): -3.4%
Mouse weight (DIO mice; day 23, methanesulfonate salt form): 47.5 g
Mouse weight change (DIO mice; [24]): -2.2 g
Mouse weight change rate (%) (DIO mice; [24]): -4.4%
Mouse weight (DIO mice; day 24, methanesulfonate salt form): 47.2 g
Mouse weight change (DIO mice; [25]): -2.5 g
Mouse weight change rate (%) (DIO mice; [25]): -5%
IC50 (MAO-A): > 10000 nM
